Results: patent US20240366783A1
pKd: −log10 of the molar value.

Molecular target: antigen HER2 (UniProt P04626)
Experiment: ELISA (heading of Example 10 says Biacore)

**Q.** How did the pKd turn out when Kadcyla (T-DM1) (antibody) was run?
**A.** 11.20
